Target: Diacylglycerol O-acyltransferase 1 (Homo sapiens, UniProt O75907)

The chains behind the UniProt entries cited, without tags or fusion partners.
UniProt O75907, whole entry, looked up: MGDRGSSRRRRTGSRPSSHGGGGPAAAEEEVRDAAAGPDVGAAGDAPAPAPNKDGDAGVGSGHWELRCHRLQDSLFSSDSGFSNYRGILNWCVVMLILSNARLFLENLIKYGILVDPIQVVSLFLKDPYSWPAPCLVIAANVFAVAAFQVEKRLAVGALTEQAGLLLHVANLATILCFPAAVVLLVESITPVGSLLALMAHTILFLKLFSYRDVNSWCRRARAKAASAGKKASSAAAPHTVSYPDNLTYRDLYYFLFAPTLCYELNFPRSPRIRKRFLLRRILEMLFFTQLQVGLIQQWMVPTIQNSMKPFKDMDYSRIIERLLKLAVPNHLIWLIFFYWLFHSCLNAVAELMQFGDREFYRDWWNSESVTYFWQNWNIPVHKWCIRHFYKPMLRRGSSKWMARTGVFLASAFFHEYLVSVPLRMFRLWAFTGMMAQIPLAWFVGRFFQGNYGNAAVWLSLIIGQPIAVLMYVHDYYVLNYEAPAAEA

With `CCP(=O)(O)O[C@H]1CC[C@H](c2ccc(C3=Nc4c(N)ncnc4OC3(C)C)cc2)CC1` the IC50 was under 0.01 µM.

Reference: BindingDB's records for US10709718
